From US8569379B2, “Use of rasagiline for the treatment of olfactory dysfunction” (Teva Pharmaceutical Industries Ltd., priority 2010, dated 2013)

Test system: alpha-synuclein over-expressing (mutants) mice (Thy1-aSyn)
Conditions: α-syn mutants receiving rasagiline; individual mice
Source text: Transgenic mice overexpressing alpha-synuclein under the Thy1 promoter (Thy1-aSyn) have high levels of alpha-synuclein expression throughout the brain but no loss of nigrostriatal dopamine neurons up to 8 months. […] Overexpression of alpha-synuclein is sufficient to cause olfactory deficits in mice similar to that observed in patients with PD (2).
The time periods that mice spent sniffing lemon and lime were compared. The testing parameters were percentage of time of sniffing lemon out of total time of sniffing and percentage of time of sniffing lime out of total time of sniffing.

Structure (SMILES): C#CCN[C@@H]1CCc2ccccc21 [Rasagiline, R(+)-N-propargyl-1-aminoindan]
- % Time sniffing Lemon: 48.5%
